{"source": "paper PMC3898886", "about": "“P-glycoprotein (Mdr1a/1b) and breast cancer resistance protein (Bcrp) decrease the uptake of hydrophobic alkyl triphenylphosphonium cations by the brain” (Biochimica et Biophysica Acta, 2013)", "key": {"[1]": {"experiment": "tissue and blood content of [3H] TPP compound after IV tail vein injection, wild type mice", "details": "100 nmol IV, wild type and transgenic mice"}, "[2]": {"test_system": "P-glycoprotein (Mdr1a/1b) and breast cancer resistance protein (Bcrp)", "experiment": "tissue and blood content of [3H] TPP compound after IV injection, transgenic mice lacking ABC transporters, compared with wild type", "details": "100 nmol IV"}}}
{"smiles": "C[P+](c1ccccc1)(c1ccccc1)c1ccccc1", "note": "[TPMP, methyltriphenylphosphonium, reference compound]", "values": [{"measurement": "uptake by the kidneys", "setting": "[1]", "result": "extensive uptake"}, {"measurement": "uptake into heart, kidney and white adipose tissue, transgenic versus wild type mice", "setting": "[2]", "result": "no difference"}, {"measurement": "AUC for accumulation into the brain", "setting": "[2]; transgenic mice, 1 to 5 h post injection", "result": 0.84, "unit": "nmol·h/g wet weight"}]}
